Data on 33 compounds can be found in US20250195530A1, “POLQ INHIBITORS” (ASTRAZENECA AB, priority 2022, published 2025).

Amino acid sequences for entries named in this document (tags omitted). Residues count along the entry.
UniProt O75417, 1780-2590: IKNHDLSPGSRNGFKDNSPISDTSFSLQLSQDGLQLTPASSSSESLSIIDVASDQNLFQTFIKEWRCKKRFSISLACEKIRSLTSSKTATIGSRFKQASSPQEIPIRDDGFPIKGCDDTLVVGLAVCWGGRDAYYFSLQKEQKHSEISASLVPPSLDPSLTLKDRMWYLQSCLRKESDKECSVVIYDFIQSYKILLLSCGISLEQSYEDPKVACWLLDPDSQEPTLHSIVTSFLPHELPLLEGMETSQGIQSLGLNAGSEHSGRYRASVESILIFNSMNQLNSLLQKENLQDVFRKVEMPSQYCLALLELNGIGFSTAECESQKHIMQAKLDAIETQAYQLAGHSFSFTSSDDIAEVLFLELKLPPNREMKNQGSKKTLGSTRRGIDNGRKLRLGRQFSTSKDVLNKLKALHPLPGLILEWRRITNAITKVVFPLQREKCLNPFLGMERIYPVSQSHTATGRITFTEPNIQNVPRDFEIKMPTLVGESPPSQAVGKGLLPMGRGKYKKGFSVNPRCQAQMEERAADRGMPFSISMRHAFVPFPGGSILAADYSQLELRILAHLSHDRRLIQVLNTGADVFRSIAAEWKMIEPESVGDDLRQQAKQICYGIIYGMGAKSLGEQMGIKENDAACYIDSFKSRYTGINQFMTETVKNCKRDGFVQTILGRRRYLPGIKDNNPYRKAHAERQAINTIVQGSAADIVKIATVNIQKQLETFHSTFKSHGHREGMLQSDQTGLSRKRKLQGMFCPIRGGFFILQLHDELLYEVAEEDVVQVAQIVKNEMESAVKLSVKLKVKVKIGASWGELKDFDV

This assay concerns the target isolated polymerase domain (I1780-V2590) of DNA polymerase theta (Polθ) (Homo sapiens (Human), UniProt O75417).

In general, IC50 refers to the concentration needed to halve the response being measured. Lower therefore signals greater potency in that assay.

`CC1(Oc2ncnc3c2nc(-c2ccc(OCC(C)(C)C(=O)O)cc2Cl)n3Cc2cccc(Cl)c2)CC1` [Example 32, 3-(3-Chloro-4-(9-(3-chlorobenzyl)-6-(1-methylcyclopropoxy)-9H-purin-8-yl)phenoxy)-2,2-dimethylpropanoic acid] had an IC50 of 5.01 nM.
As for `Cc1ccnc(Cn2c(-c3ccc(OCCO)cc3Cl)nc3c(OC4(C)CC4)ncnc32)c1` [Example 33, 2-(3-Chloro-4-(6-(1-methylcyclopropoxy)-9-((4-methylpyridin-2-yl)methyl)-9H-purin-8-yl)phenoxy)ethan-1-ol], the figure is 6.31 nM; as for `Cc1ccnc(Cn2c(-c3ccc(OC[C@H](C)O)cc3Cl)nc3c(OC4(C)CC4)ncnc32)c1` [Example 36, (S)-1-(3-Chloro-4-(6-(1-methylcyclopropoxy)-9-((4-methylpyridin-2-yl)methyl)-9H-purin-8-yl)phenoxy)propan-2-ol], 6.31 nM.
In the case of `Cc1ccnc(Cn2c(-c3ccc(OC[C@@H](C)O)cc3Cl)nc3c(OC4(C)CC4)ncnc32)c1` [Example 37, (R)-1-(3-Chloro-4-(6-(1-methylcyclopropoxy)-9-((4-methylpyridin-2-yl)methyl)-9H-purin-8-yl)phenoxy)propan-2-ol] it was 6.31 nM; in that of `CC1(Oc2ncnc3c2nc(-c2ccc(CC(N)=O)cc2Cl)n3Cc2cc(Cl)ccn2)CC1` [Example 38, 2-(3-Chloro-4-(9-((4-chloropyridin-2-yl)methyl)-6-(1-methylcyclopropoxy)-9H-purin-8-yl)phenyl)acetamide], 10 nM; in that of `Cc1ccnc(Cn2c(-c3ccc(OC4CN(C(=O)CO)C4)cc3Cl)nc3c(OC4(C)CC4)ncnc32)c1` [Example 39, 1-(3-(3-Chloro-4-(6-(1-methylcyclopropoxy)-9-((4-methylpyridin-2-yl)methyl)-9H-purin-8-yl)phenoxy)azetidin-1-yl)-2-hydroxyethan-1-one], 5.01 nM.
As for `CC(=O)N1CC(Oc2ccc(-c3nc4c(OC5(C)CC5)ncnc4n3Cc3cc(C)ccn3)c(Cl)c2)C1` [Example 40, 1-(3-(3-Chloro-4-(6-(1-methylcyclopropoxy)-9-((4-methylpyridin-2-yl)methyl)-9H-purin-8-yl)phenoxy)azetidin-1-yl)ethan-1-one], the figure is 10 nM.
For `Cc1ccnc(Cn2c(-c3ccc(O[C@H]4CCC(=O)NC4)cc3Cl)nc3c(OC4(C)CC4)ncnc32)c1` [Example 41, (S)-5-(3-Chloro-4-(6-(1-methylcyclopropoxy)-9-((4-methylpyridin-2-yl)methyl)-9H-purin-8-yl)phenoxy)piperidin-2-one], the midpoint of inhibition, the IC50, lay at 7.94 nM. The IC50 values of the last two compounds are within 1.5-fold of each other.
In the case of `Cc1ccnc(Cn2c(-c3ccc(OC4CNC(=O)NC4)cc3Cl)nc3c(OC4(C)CC4)ncnc32)c1` [Example 42, 5-(3-Chloro-4-(6-(1-methylcyclopropoxy)-9-((4-methylpyridin-2-yl)methyl)-9H-purin-8-yl)phenoxy)tetrahydropyrimidin-2(1H)-one] it was 10 nM; in that of `CC1(Oc2ncnc3c2nc(-c2ccc(OCCCC(=O)O)cc2Cl)n3Cc2cccc(Cl)c2)CC1` [Example 44, 4-(3-Chloro-4-(9-(3-chlorobenzyl)-6-(1-methylcyclopropoxy)-9H-purin-8-yl)phenoxy)butanoic acid], 6.31 nM; in that of `CC1(Oc2ncnc3c2nc(-c2ccc(OCCOCC(=O)O)cc2Cl)n3Cc2cccc(Cl)c2)CC1` [Example 46, 2-(2-(3-Chloro-4-(9-(3-chlorobenzyl)-6-(1-methylcyclopropoxy)-9H-purin-8-yl)phenoxy)ethoxy)acetic acid], 5.01 nM.
In the case of `COc1ccc(Cl)cc1Cn1c(-c2ccc(OCC[C@@H](C)C(=O)O)cc2Cl)nc2c(OC3(C)CC3)ncnc21` [Example 47, (R)-4-(3-chloro-4-(9-(5-chloro-2-methoxybenzyl)-6-(1-methylcyclopropoxy)-9H-purin-8-yl)phenoxy)-2-methylbutanoic acid] it was 6.31 nM; in that of `COc1ccc(Cl)cc1Cn1c(-c2ccc(OCC[C@H](C)C(=O)O)cc2Cl)nc2c(OC3(C)CC3)ncnc21` [Example 48, (S)-4-(3-chloro-4-(9-(5-chloro-2-methoxybenzyl)-6-(1-methylcyclopropoxy)-9H-purin-8-yl)phenoxy)-2-methylbutanoic acid], 5.01 nM.
In the case of `COc1ccc(Cl)cc1Cn1c(-c2cccc(OCCC(=O)O)c2Cl)nc2c(OC3(C)CC3)ncnc21` [Example 49, 3-(2-Chloro-3-(9-(5-chloro-2-methoxybenzyl)-6-(1-methylcyclopropoxy)-9H-purin-8-yl)phenoxy)propanoic acid] it was 7.94 nM; in that of `COc1ccc(Cl)cc1Cn1c(-c2cccc(O[C@H]3C[C@@H](C(=O)O)C3)c2Cl)nc2c(OC3(C)CC3)ncnc21` [Example 52, (1s,3s)-3-(2-chloro-3-(9-(5-chloro-2-methoxybenzyl)-6-(1-methylcyclopropoxy)-9H-purin-8-yl)phenoxy)cyclobutane-1-carboxylic acid], 3.98 nM.
As to `CC(C)Oc1ccc2c(c1)nc(-c1ccc(O)cc1Cl)n2Cc1ccccc1` [Example A1, 4-(1-Benzyl-5-isopropoxy-1H-benzo[d]imidazol-2-yl)-3-chlorophenol], the IC50 is 5.01 nM.
As for `CC(C)Oc1ccc2c(c1)nc(-c1ccc(OCCCNC(=O)OC(C)(C)C)cc1Cl)n2Cc1ccccc1` [Example A2, Tert-butyl (3-(4-(1-benzyl-5-isopropoxy-1H-benzo[d]imidazol-2-yl)-3-chlorophenoxy)propyl)carbamate], the figure is 12.6 nM; as for `CC(=O)NCCCOc1ccc(-c2nc3cc(OC(C)C)ccc3n2Cc2ccccc2)c(Cl)c1` [Example A3, N-(3-(4-(1-benzyl-5-isopropoxy-1H-benzo[d]imidazol-2-yl)-3-chlorophenoxy)propyl)acetamide], 2 nM; as for `CCCCCCC(=O)NCCCOc1ccc(-c2nc3cc(OC(C)C)ccc3n2Cc2ccccc2)c(Cl)c1` [Example A4, N-(3-(4-(1-benzyl-5-isopropoxy-1H-benzo[d]imidazol-2-yl)-3-chlorophenoxy)propyl)heptanamide], 7.94 nM.
As for `Cc1cc(OCCN2CCN(C)CC2)ncc1-c1nc2cc(OC(C)C)ccc2n1Cc1ccc(Cl)cc1` [Example A5, 1-(4-chlorobenzyl)-5-isopropoxy-2-(4-methyl-6-(2-(4-methylpiperazin-1-yl)ethoxy)pyridin-3-yl)-1H-benzo[d]imidazole], the figure is 3.98 nM; as for `Cc1ccc(F)c(Cn2c(-c3ccc(OCCN4CCN(C)CC4)cc3Cl)nc3cc(OC(C)C)ccc32)c1Cl` [Example A6, 2-(2-chloro-4-(2-(4-methylpiperazin-1-yl)ethoxy)phenyl)-1-(2-chloro-6-fluoro-3-methylbenzyl)-5-isopropoxy-1H-benzo[d]imidazole], 10 nM.
As for `COc1ccc(-c2nc3cc(OC(C)C)ccc3n2Cc2ccccc2)c(Cl)c1` [Example A12, 1-benzyl-2-(2-chloro-4-methoxyphenyl)-5-isopropoxy-1H-benzo[d]imidazole], the figure is 3.98 nM; as for `Cc1cc(OCCN2CCN(C(=O)OC(C)(C)C)CC2)ccc1-c1nc2c(OC(C)C)ncnc2n1Cc1ccccc1` [Example B3, tert-butyl 4-(2-(4-(9-benzyl-6-isopropoxy-9H-purin-8-yl)-3-methyl-phenoxy)ethyl) piperazine-1-carboxylate], 5.01 nM; as for `CC(=O)N1CCN(CCOc2ccc(-c3nc4c(OC(C)C)ncnc4n3Cc3ccccc3)c(C)c2)CC1` [Example B4, 1-(4-(2-(4-(9-benzyl-6-isopropoxy-9H-purin-8-yl)-3-methyl-phenoxy)ethyl)piperazin-1-yl)ethan-1-one], 2.51 nM.
`CCCCCC(=O)N1CCN(CCOc2ccc(-c3nc4c(OC(C)C)ncnc4n3Cc3ccccc3)c(C)c2)CC1` [Example B5, 1-(4-(2-(4-(9-benzyl-6-isopropoxy-9H-purin-8-yl)-3-methyl-phenoxy)ethyl)piperazin-1-yl)hexan-1-one] had an IC50 of 5.01 nM.
As for `Cc1cc(OCCN2CCN(C)CC2)ccc1-c1nc2c(OC3(C)CC3)ncnc2n1Cc1ccccc1` [Example C1, 9-benzyl-8-(2-methyl-4-(2-(4-methylpiperazin-1-yl)ethoxy)phenyl)-6-(1-methylcyclopropoxy)-9H-purine], the figure is 2.51 nM.
In the case of `CC(=O)N1CCN(c2cc(C)c(-c3nc4c(OC5(C)CC5)ncnc4n3Cc3ccccc3)cn2)CC1` [Example C2, 1-(4-(5-(9-benzyl-6-(1-methylcyclopropoxy)-9H-purin-8-yl)-4-methylpyridin-2-yl)piperazin-1-yl)ethan-1-one] it was 2.51 nM; in that of `CN(C)[C@@H]1CCN(c2ccc(-c3nc4c(OC5(C)CC5)ncnc4n3Cc3ccccc3)c(Cl)c2)C1` [Example C4, (R)-1-(4-(9-benzyl-6-(1-methylcyclopropoxy)-9H-purin-8-yl)-3-chlorophenyl)-N,N-dimethylpyrrolidin-3-amine], 2.51 nM.
For `Cc1cc(N2CCNCC2)ncc1-c1nc2c(OC3(C)CC3)ncnc2n1Cc1ccccc1` [Example C5, 9-benzyl-8-(4-methyl-6-(piperazin-1-yl)pyridin-3-yl)-6-(1-methylcyclopropoxy)-9H-purine], the IC50 was 2.51 nM.
In the case of `COc1cccc(-c2nc3c(OC4(C)CC4)ncnc3n2Cc2ccccc2)c1Cl` [Example C6, 9-benzyl-8-(2-chloro-3-methoxyphenyl)-6-(1-methylcyclopropoxy)-9H-purine] it was 2 nM; in that of `CC(=O)N1CCN(CCOc2ccc(-c3nc4c(OC5(C)CC5)ncnc4n3Cc3ccccc3)c(Cl)c2)CC1` [Example D5, 1-(4-(2-(4-(9-benzyl-6-(1-methylcyclopropoxy)-9H-purin-8-yl)-3-chlorophenoxy)ethyl)piperazin-1-yl)ethan-1-one], 2 nM.
As for `CC1(Oc2ncnc3c2nc(-c2ccc(OCCCN)cc2Cl)n3Cc2ccccc2)CC1` [Example D6, 3-(4-(9-benzyl-6-(1-methylcyclopropoxy)-9H-purin-8-yl)-3-chlorophenoxy)propan-1-amine], the figure is 3.16 nM; as for `CC(=O)NCCCOc1ccc(-c2nc3c(OC4(C)CC4)ncnc3n2Cc2ccccc2)c(Cl)c1` [Example D7, N-(3-(4-(9-benzyl-6-(1-methylcyclopropoxy)-9H-purin-8-yl)-3-chlorophenoxy)propyl)acetamide], 2.51 nM.
